Experiments:
[1] = molecular target: Angiotensin Converting Enzyme (ACE) (Homo sapiens, UniProt P12821); test: At-line ACE assay (HHL hydrolysis, flash-HPLC read-out); type: biochemical
Text: MAP and ITP as novel ACE inhibiting peptides were identified in samples by using 2-dimensional-chromatographic-separation combined with an at-line ACE activity assay and mass spectrometry for identification. In the first analysis the peptide mixture is separated on an ODS3 liquid chromatography (LC) column. An activity profile is created from fractions collected from the analysis using a slightly modified Matsui assay. In the second analysis the fractions from the first column showing a high activity are further separated on a Biosuite LC column using a different gradient profile. The fractions collected from this second column are split into two parts, one part is used for the activity measurement while MS and MS-MS is applied on the other part for identification of the peptides present.
20 μl of a 10% (w/v) solution of PH in Milli-Q water was injected on a 150×2.1 Inertsil 5 ODS3 column with a particle size of 5 μm (Varian, Middelburg, the Netherlands). Mobile phase A consisted of a 0.1% trifluoroacetic acid (TFA) solution in Milli-Q water. Mobile phase B consisted of a 0.1% TFA solution in acetonitrile. The initial eluent composition was 100% A. The eluent was kept at 100% A for 5 minutes. Then a linear gradient was started in 10 minutes to 5% B, followed by a linear gradient in 10 minutes to 30% B. The column was flushed by raising the concentration of B to 70% in 5 minutes, and was kept at 70% B for another 5 minutes. After this the eluent was reduced to 100% A in 1 minute and equilibrated for 9 minutes. The total run time was 50 minutes. The effluent flow was 0.2 ml min^−1 and the column temperature was set at 60° C. A UV chromatogram was recorded at 215 nm. […] After the reaction the plate was cooled in melting ice and analysed on a flash-HPLC-column. […] Hippuric acid (H) and HHL were monitored at 280 nm. The peak heights of H and HHL were measured and the ACEI of each fraction was calculated according to the equation: […]
The degree of hydrolysis (DH) was calculated by expressing the peak height of H as a fraction of the sum of the peak heights of H and HHL.

Sequences of proteins named here, by UniProt entry; tags and fusion partners are left off. Residues count along the entry.
UniProt P12821, 30-1306, species assumed: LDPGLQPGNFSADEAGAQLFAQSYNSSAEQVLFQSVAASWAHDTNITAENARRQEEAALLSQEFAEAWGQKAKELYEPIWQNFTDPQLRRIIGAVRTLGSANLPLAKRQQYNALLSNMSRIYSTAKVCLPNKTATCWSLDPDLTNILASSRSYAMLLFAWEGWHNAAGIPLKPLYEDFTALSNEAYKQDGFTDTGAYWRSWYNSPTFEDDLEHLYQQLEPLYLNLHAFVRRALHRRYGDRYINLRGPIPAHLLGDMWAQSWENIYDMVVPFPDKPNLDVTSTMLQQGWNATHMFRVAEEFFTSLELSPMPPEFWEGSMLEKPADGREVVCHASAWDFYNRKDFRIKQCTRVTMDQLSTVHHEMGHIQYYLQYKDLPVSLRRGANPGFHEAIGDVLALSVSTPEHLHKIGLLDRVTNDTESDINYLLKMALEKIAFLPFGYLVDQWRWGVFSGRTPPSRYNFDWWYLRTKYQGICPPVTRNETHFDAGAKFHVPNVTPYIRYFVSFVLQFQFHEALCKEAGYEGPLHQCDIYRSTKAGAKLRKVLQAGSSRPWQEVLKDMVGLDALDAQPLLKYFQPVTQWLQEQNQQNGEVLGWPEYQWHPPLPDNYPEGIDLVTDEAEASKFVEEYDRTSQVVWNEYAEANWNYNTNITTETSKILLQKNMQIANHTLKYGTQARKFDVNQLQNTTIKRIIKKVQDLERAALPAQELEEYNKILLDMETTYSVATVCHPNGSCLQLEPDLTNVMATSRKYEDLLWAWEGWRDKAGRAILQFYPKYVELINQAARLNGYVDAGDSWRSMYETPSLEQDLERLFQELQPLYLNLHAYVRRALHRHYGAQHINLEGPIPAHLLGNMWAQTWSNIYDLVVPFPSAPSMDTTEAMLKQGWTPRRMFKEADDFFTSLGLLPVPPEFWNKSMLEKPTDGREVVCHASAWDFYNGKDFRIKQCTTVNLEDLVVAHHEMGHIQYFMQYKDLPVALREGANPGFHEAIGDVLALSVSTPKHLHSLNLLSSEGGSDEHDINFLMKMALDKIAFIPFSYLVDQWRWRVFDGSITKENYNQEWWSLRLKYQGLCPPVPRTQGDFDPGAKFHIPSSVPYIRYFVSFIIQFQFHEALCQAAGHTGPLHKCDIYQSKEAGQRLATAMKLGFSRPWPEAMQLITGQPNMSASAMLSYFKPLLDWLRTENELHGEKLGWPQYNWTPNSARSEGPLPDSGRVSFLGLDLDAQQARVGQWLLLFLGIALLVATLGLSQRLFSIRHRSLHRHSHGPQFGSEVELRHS

ACE = test: Modified Matsui ACE inhibition assay; type: biochemical
Procedure: This ACE inhibition activity was assayed according to the method of Matsui et al. (Matsui, T. et al. (1992) Biosci. Biotech. Biochem. 56: 517-518) with the modifications described below.
For each sample 75 μl 3 mM hippuryl histidine leucine (Hip-His-Leu, Sigma chemicals Co.; the chemical was dissolved in 250 mM Borate containing 200 mM NaCl, pH 8.3); 20 μl 0.1 U/ml ACE (obtained at Sigma) or H2O, and 25 μl sample or H2O were mixed (see Table 1). The mixtures were incubated at 37° C. and stopped after 30 min by adding 125 μl 0.5 M HCl. Subsequently, 225 μl bicine/NaOH solution (1 M NaOH:0.25 M bicine (4:6)) was added, followed by 25 μl 0.1 M TNBS (2,4,6-Trinitrobenzenesulfonic acid, Fluka, Switzerland; in 0.1 M Na2HPO4). After incubation for 20 min. at 37° C., 4, ml 4 mM Na2SO3 in 0.2 M NaH2PO4 was added and the absorbance at 416 nm was measured with UV/Vis spectrophotometer (Shimadzu UV-1601 with a CPS controller, Netherlands).
The amount of ACE inhibition (ACEI) activity was calculated as a percentage of inhibition compared with the conversion rate of ACE in the absence of an inhibitor:
wherein • C1=Absorbance without ACE inhibitory component (=max. ACE activity) [AU]. • C2=Absorbance without ACE inhibitory component and without ACE (background) [AU]. • S1=Absorbance in the presence of ACE and the ACE inhibitory component [AU]. • S2=Absorbance in the presence of the ACE inhibitory component, but without ACE [AU].

- IC50 [1]: 7.1 µM
- IC50 (ACE): 2 µM
Compound: CC[C@H](C)[C@H](N)C(=O)N1CCC[C@H]1C(=O)N1CCC[C@H]1C(=O)O [IPP, reference compound]

From US20090304869A1, “Peptides Having an Ace Inhibiting Effect” (priority 2005, published 2009)
